Measurements reported in ChEMBL document CHEMBL4261658, “4-Hydroxy-3-nitro-5-ureido-benzenesulfonamides Selectively Target the Tumor-Associated Carbonic Anhydrase Isoforms IX and XII Showing Hypoxia-Enhanced Antiproliferative Profiles” (J Med Chem, 2018).

Protein sequences, listed by entry. Tags and fused reporters are not part of them. Residues count along the entry.
UniProt P00915, 2-261 limits assumed: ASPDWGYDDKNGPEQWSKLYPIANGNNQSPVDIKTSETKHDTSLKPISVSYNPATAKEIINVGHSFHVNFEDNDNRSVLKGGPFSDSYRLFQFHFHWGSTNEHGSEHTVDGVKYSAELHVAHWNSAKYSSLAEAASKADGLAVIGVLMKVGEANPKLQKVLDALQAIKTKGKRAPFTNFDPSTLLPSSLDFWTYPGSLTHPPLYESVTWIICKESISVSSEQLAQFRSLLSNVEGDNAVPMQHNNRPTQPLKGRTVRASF
UniProt O43570, 25-354 limits assumed: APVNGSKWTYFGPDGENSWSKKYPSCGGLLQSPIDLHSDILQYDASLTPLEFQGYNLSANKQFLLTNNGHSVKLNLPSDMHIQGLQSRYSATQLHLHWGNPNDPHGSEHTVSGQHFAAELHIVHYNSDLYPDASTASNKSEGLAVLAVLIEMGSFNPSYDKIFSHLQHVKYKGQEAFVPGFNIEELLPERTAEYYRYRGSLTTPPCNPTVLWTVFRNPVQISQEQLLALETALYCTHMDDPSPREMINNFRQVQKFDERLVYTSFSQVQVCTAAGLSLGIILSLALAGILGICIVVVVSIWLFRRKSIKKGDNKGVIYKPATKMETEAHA

Assays:
[1] = target: Carbonic anhydrase 2 (Homo sapiens, UniProt P00918)
[2] = target: Carbonic anhydrase 1 (Homo sapiens, UniProt P00915)
[3] = target: Carbonic anhydrase 9 (Homo sapiens, UniProt Q16790); experiment: Inhibition of carbonic anhydrase 9 (unknown origin) preincubated for 15 mins by stopped flow CO2 hydration assay
[4] = target: Carbonic anhydrase 12 (Homo sapiens, UniProt O43570)

NS(=O)(=O)c1cc([N+](=O)[O-])c(O)c([N+](=O)[O-])c1
Ki [1]: 180 nM
Ki [2]: 4350 nM
Ki [3]: 100 nM
Ki [4]: 80 nM
